# Ab-14 light chain CDR variants: yeast mating affinities

All variants were tested on one target, the spike HR2 peptide PDVDLGDISGINAS (SARS-CoV-2).

Each scFv is VH, the linker GGGGSGGGGSGGGGS, VL, as in the parent Ab-14, and differs from it in the CDRs of the light chain only.
VH: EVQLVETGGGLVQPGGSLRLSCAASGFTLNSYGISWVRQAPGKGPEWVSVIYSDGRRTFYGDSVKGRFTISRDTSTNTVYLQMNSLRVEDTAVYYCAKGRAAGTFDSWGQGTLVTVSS
VL: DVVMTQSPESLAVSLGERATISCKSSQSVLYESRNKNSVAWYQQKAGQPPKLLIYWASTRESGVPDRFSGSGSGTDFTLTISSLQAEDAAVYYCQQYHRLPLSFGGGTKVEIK

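Phage display of a naive human antibody library on the peptide gave the parent. Library AAYL50 holds single substitutions and randomly drawn double and triple substitutions in the CDRs. In AlphaSeq, yeast of one mating type display the scFv and yeast of the other type display the target. Pairs that bind mate more often; barcode pairs of the diploids are counted by sequencing. Read counts were normalised to the haploid input and turned into Kd by a linear fit to BCL2-family pairs of known affinity, for each replicate. There are three technical replicates.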

Each variant is given by its three light chain CDRs, as the data file delimits them; those of the parent are KSSQSVLYESRNKNSVA, WASTRES, QQYHRLPLS. All variants listed here change L102 of the VL, counted from its first residue. Values are apparent Kd, the geometric mean of the replicates that gave a signal; lower means stronger binding. "nd" marks a missing value. The strain was present, yet no cells mated with the target were sequenced in any replicate, which points to weak or no binding. Background: pairings of library AAYL50 with three empty control strains gave a value in 18% of cases (median 15 µM, 5th percentile 970 nM). Values in that range, when seen in few replicates, are hard to tell from nonspecific mating. For reference, the parent read 4.4 nM as the reference entry and 48 nM as a member of this library.

* KSSQSVLYESRNKNSVA / WASTRES / QQYHRWPWC = nd (0 of 3 replicates)
* KSMQSVLYESRNKNSVA / WASTRES / QRYHRLPSS = 1.5 µM (1 of 3 replicates)
* NSSQSWLYESRNKNSVA / WASTRES / QQYHRLPMS = 510 nM (3 of 3 replicates)
* KSSQSVLYESRNKNSKM / WASTRES / QQYHRLPYS = 120 µM (2 of 3 replicates)
* KSSQSVLYESRLKNSVA / WASTRES / QQYARLPRS = 13 nM (3 of 3 replicates)
* KSSQSVLYESRNKNSVA / PASTREN / QQYHRLPKS = 77 µM (2 of 3 replicates)
* KSSQSVLYESRNKNSVA / WASTRES / QQYHRLPGS = 640 µM (1 of 3 replicates)
* KSSQSVLYESRWKNSVA / WASTRES / QQYHRLPAG = nd (0 of 3 replicates)
* KSSQSVLYESRNKNSAA / WYSTRES / QQYHRLPYS = 60 µM (2 of 3 replicates)
* KSSQSVLYESRNKNSVA / WASTRYS / QQYHVLPCS = nd (0 of 3 replicates)
* KSSQSELYESRNKNSVA / WASTRES / QQEHRLPGS = nd (0 of 3 replicates)
* SSSQSVLYESRNKNSVA / WASTRTS / QQYHRLPVS = 62 nM (3 of 3 replicates)
* KSSQSVLYESRNKNSVA / WAVTRED / QQYHRLPDS = nd (0 of 3 replicates)
* KSSQSVLYESRNKNSVA / WAGTRHS / QQYHRLPTS = 39 µM (1 of 3 replicates)
* KSSQSVLNESRNKNPVA / WASTRES / QQYHRLPPS = 1.3 µM (1 of 3 replicates)
* KSMSSVLYESRNKNSVA / WASTRES / QQYHRLPYS = 31 nM (3 of 3 replicates)
* KSIQSVLYEFRNKNSVA / WASTRES / QQYHRLPQS = nd (0 of 3 replicates)
* KGSQSVLYESRNKNSVA / WASTRES / QQYHRRPDS = nd (0 of 3 replicates)
* KSSQSVLYESRNANSVA / WAATRES / QQYHRLPES = 4.6 µM (2 of 3 replicates)
* KSSQSVLYESNNKNSVA / WASTRES / QQYHRLPGS = 2.3 nM (3 of 3 replicates)
* KSHQSVLYESRNKNSVA / WASTRES / QQYHRSPHS = 100 nM (3 of 3 replicates)
* KSSQQVLYESRNKNSVE / WASTRES / QQYHRLPTS = nd (0 of 3 replicates)
* KSSQSVLYESRNKNSVA / WTSTRES / QQYHSLPCS = 13 µM (1 of 3 replicates)
* KSSQSGLYESRNKNSVA / WASTRES / MQYHRLPTS = 5.2 nM (3 of 3 replicates)
* KSSQSVLYGSRNKNSVA / WASTRES / QQYHRLPIP = 5.8 nM (3 of 3 replicates)
* KSSQSVLYESRNKNSVA / WHSTRES / QQYHRLPWN = nd (0 of 3 replicates)
* KSSQSVLYESRNKNSNA / WASTRES / QQYHRLPWS = 48 µM (2 of 3 replicates)
* KSSQSELYESRNKNSVA / WASTRES / QEYHRLPRS = 5.3 nM (3 of 3 replicates)
* KSSQSVLYESRNKNSVA / WASVRTS / QQYHRLPMS = 11 µM (2 of 3 replicates)
* KSSQSVLYESRNKNYVA / VASTRES / QQYHRLPVS = 120 µM (2 of 3 replicates)
* KSSQSVLCESRNKNSVA / WAETRES / QQYHRLPAS = 39 nM (3 of 3 replicates)
* KSSQSVLYESRYKNSVA / WASTRES / QQYHRLPIS = 17 nM (3 of 3 replicates)
* KSSQSVLYESRNKNSVA / WASTRES / QQAHRLPMV = nd (0 of 3 replicates)
* KSSQSVLYESRNKNSVA / WASTRES / QQYHRLPDI = 15 µM (3 of 3 replicates)
* KSSQSVLYESRNKMSVA / WASTSES / QQYHRLPIS = nd (0 of 3 replicates)
* KSSQSVLYESRAKNSYA / WASTRES / QQYHRLPAS = nd (0 of 3 replicates)
* KSSQSVLYESRNKNSRA / WASTTES / QQYHRLPWS = nd (0 of 3 replicates)
* KSSQSVLYESRNKNEVA / WASTRES / QQYHRKPNS = 6.6 µM (3 of 3 replicates)
* KSSCSVLYESRNKNSVA / WASTRES / QRYHRLPRS = 7.0 µM (1 of 3 replicates)
* KSSQQVLYESRNKNSVA / WASTRES / QQYFRLPIS = 6.5 nM (3 of 3 replicates)
* DSSQSVLYESRNKNSVA / WASTRES / QFYHRLPYS = 37 µM (3 of 3 replicates)
* KSSESVLYESRNKNSVA / WAATRES / QQYHRLPGS = nd (0 of 3 replicates)
* KSSQDVLYESRNKNSVA / WCSTRES / QQYHRLPES = 920 pM (3 of 3 replicates)

Top 4 of the variants detected in all replicates, tightest first:

- KSSQDVLYESRNKNSVA / WCSTRES / QQYHRLPES -> 920 pM (3 of 3 replicates)
- KSSQSVLYESNNKNSVA / WASTRES / QQYHRLPGS -> 2.3 nM (3 of 3 replicates)
- KSSQSGLYESRNKNSVA / WASTRES / MQYHRLPTS -> 5.2 nM (3 of 3 replicates)
- KSSQSELYESRNKNSVA / WASTRES / QEYHRLPRS -> 5.3 nM (3 of 3 replicates)

Source: Engelhart et al. 2022 (doi:10.1038/s41597-022-01779-4), MIT Lincoln Laboratory and A-Alpha Bio; data file from the FLAb repository.